Publication PMC6538186, “Using the concordance of in vitro and in vivo data to evaluate extrapolation assumptions” (PLoS ONE, 2019)

What follows are compounds tested on plasma protein (assay: Plasma protein binding by rapid equilibrium dialysis (RED), fraction unbound in plasma (fup)). Settings: 5 μM, 4 hours at 37°C, This Work, below the limit of detection a default of 0.005 was assumed for modelling.

**Q.** `O=[N+]([O-])c1cccc([N+](=O)[O-])c1` was tested. Which Rat.Funbound.plasma did it give?
**A.** 0.35

**Q.** How did the Rat.Funbound.plasma turn out when `Cc1cc([N+](=O)[O-])cc([N+](=O)[O-])c1O` was run?
**A.** 0.023

**Q.** For `CCCCOP(=O)(OCCCC)OCCCC`, which Rat.Funbound.plasma is on record?
**A.** 0.0257
